Measured values from patent US7531500B2, “Preventing airway mucus production by administration of EGF-R antagonists” (The Regents of the University of California, priority 1998, dated 2009).

Target: EGFR (Homo sapiens, UniProt P00533)
Test: Immunoprecipitation of EGF-R and immunoblotting for tyrosine phosphorylation in NCI-H292 cells
Assay type: cell-based
Design: These cells express EGF-R constitutively; endogenous in cells; host or cells: NCI-H292 (human pulmonary mucoepidermoid carcinoma)
Details: pretreatment of NCI-H292 cells
Description: Immunoprecipitation for EGF-R Protein and Immunoblotting for Tyrosine Phosphorylation. Cells were serum-starved for 24 h and then stimulated with TGFα, H2O2, or the supernatant of activated neutrophils for 15 min. After stimulation, cells were lysed and incubated for 30 min in an orbital shaker at 4° C. To remove insoluble material, cell lysates were centrifuged at 14,000 rpm for 5 min at 4° C. Aliquots of supernatants containing equal amounts of protein were immunoprecipitated with anti-EGF receptor antibody (polyclonal, Ab4, Calbiochem) and 20 μl of protein A-agarose (Santa Cruz) for 2 h at 4° C. Precipitates were washed three times with 0.5 ml of lysis buffer, suspended in SDS sample buffer, and boiled for 5 min. Proteins were separated by SDS-PAGE in 8.0% acrylamide gel. The resulting gel was equilibrated in the transfer buffer: 25 mM Tris-HCl, 192 mM glycine, 20% (vol/vol) methanol, pH 8.3. The proteins were then transferred electrophoretically to nitrocellulose membranes (0.22 μm), blocked with 5% fat-free skimmed milk in PBS containing 0.05% Tween 20 overnight and then incubated with monoclonal anti-phosphotyrosine antibody (1:100,Santa Cruz) for 1 h. Bound antibody was visualized according to a standard protocol for the avidin-biotin-alkaline phosphatase complex method (ABC kit, Vector Laboratories).

EGF-R tyrosine phosphorylation by all stimuli: inhibited
SMILES: COc1cc2ncnc(Nc3cccc(Cl)c3)c2cc1OC [AG1478]
